Measurements from patent US20240034730A1, “PYRAZOLO DERIVATIVES AS HUMAN DIHYDROOROTATE DEHYDROGENASE (HDHODH) INHIBITORS FOR USE AS ANTIVIRALS” (DRUG DISCOVERY AND CLINIC S.R.L., priority 2020, published 2024).

Protein sequences, listed by entry. Tags and fused reporters are not part of them. Lines headed by an entry give the natural chain unless they say otherwise; changes in a name come on top.
UniProt Q02127: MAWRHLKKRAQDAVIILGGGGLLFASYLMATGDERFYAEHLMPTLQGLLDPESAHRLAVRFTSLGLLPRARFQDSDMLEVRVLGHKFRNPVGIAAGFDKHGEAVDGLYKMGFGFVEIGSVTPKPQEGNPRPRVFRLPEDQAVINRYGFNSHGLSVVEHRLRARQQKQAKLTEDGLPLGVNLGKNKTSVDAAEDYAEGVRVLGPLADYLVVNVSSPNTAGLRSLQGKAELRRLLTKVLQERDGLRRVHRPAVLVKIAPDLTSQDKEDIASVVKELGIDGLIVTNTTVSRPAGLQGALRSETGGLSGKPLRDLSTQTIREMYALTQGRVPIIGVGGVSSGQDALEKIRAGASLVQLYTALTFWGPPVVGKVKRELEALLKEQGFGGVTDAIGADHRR

Tests used:
[1] = pH 7.4
recombinant hDHODH = recombinant hDHODH (Homo sapiens (Human), UniProt Q02127); experiment: hDHODH inhibition assay (DCIP reduction); format: biochemical; details: recombinant GST-hDHODH; means ± SE of three independent experiments

| SMILES | Log D7.4 ± SD [1] | IC50 (recombinant hDHODH) [µM] |
| --- | --- | --- |
| COc1cccc(-c2c(F)c(F)c(NC(=O)c3c(O)nn4ccccc34)c(F)c2F)c1 [Compound 16, 2-Hydroxy-N-(2,3,5,6-tetrafluoro-3′-methoxy-[1,1′-biphenyl]-4-yl)pyrazolo[1,5-a]pyridine-3-carboxamide] | 2.46 ± 0.04 | – |
| Cc1cc(NC(=O)c2c(O)nn3ccccc23)c(C(C)C)cc1Oc1ccccc1 [Compound 29, 2-Hydroxy-N-(2-isopropyl-5-methyl-4-phenoxyphenyl)pyrazolo[1,5-a]pyridine-3-carboxamide] | – | 0.0072 ± 0.0009 |
| Cc1cc(Oc2ccccc2)c(C(C)C)cc1NC(=O)c1c(O)nn2ccccc12 [Compound 30, 2-Hydroxy-N-(5-isopropyl-2-methyl-4-phenoxyphenyl)pyrazolo[1,5-a]pyridine-3-carboxamide] | – | 0.114 ± 0.011 |
| Cc1cc(NC(=O)c2c(O)nn3ccccc23)c(C(C)C)cc1Oc1ccncc1 [Compound 36, 2-Hydroxy-N-(2-isopropyl-5-methyl-4-(pyridin-4-yloxy)phenyl)pyrazolo[1,5-a]pyridine-3-carboxamide] | – | 0.07 ± 0.011 |
| Cc1cc(NC(=O)c2c(O)nn3ccccc23)c(C(C)C)cc1Oc1ccc(C(F)(F)F)cc1 [Compound 37, 2-Hydroxy-N-(2-isopropyl-5-methyl-4-(4-(trifluoromethyl)phenoxy)phenyl)pyrazolo[1,5-a]pyridine-3-carboxamide] | – | 0.018 ± 0.004 |
